Reference: PubChem BioAssay AID1016 (Sanford-Burnham Center for Chemical Genomics, 2008)
Only a part is listed here, and it is no random draw. Some of these compounds have results that are not shown, active ones among them. The source made the active and inactive calls.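 The calls were made as follows: active = activation factor of 2 or more at 20 µM, a signal rise over negative controls twice the positive control's; inactive = the rest.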

tested on: alkaline phosphatase, intestinal [Bos taurus]; assay: bovine intestinal alkaline phosphatase activators, primary screen, biochemical, bovine IAP, CDP-star luminescence (AID 1016); conditions: purified bovine IAP, 30 min, at 20 µM, hits give high values, fold of DMSO-control signal, blank-subtracted

SMILES | activation factor
CN(C)C1CCCC1OC(=O)C(O)(c1ccccc1)c1ccccc1 (centres undefined) | inactive: 1
Cc1ccccc1C(=O)NCC1(N2CCCCC2)CCCCC1 | inactive: 1.1
C=CCN1CCN(CCOC(=O)C(O)(c2ccccc2)c2ccccc2)CC1 | inactive: 1
CCN1CCCC(OC(=O)C2(O)c3ccccc3C=Cc3ccccc32)C1 (centres undefined) | inactive: 0.7
O=C(NCC1(N2CCCCC2)CCCCC1)c1cc([N+](=O)[O-])ccc1Cl | inactive: 0.7
CC(C)N1C(=O)CC2(CCN(CCOC(=O)C(O)(c3ccccc3)c3ccccc3)CC2)C1=O | inactive: 1
O=C(OC1CN2CCC1CC2)C(CO)(c1ccccc1)c1ccccc1 (centres undefined) | inactive: 1
CN(C)c1cccc(C(=O)NCC2(N(C)C)CCCCC2)c1 | inactive: 1
COc1cccc(C(=O)NCC2(N3CCCCC3)CCCCC2)c1 | inactive: 1
